The assay concerns the target human hD2L receptors (Homo sapiens, UniProt P14416). Kind of assay: Saturation. The following applies: hD2L in HEK cells, saturation binding, mean ± S.E.M n = 3.

Protein sequences, listed by entry. Tags and fused reporters are not part of them.
UniProt P14416, whole entry: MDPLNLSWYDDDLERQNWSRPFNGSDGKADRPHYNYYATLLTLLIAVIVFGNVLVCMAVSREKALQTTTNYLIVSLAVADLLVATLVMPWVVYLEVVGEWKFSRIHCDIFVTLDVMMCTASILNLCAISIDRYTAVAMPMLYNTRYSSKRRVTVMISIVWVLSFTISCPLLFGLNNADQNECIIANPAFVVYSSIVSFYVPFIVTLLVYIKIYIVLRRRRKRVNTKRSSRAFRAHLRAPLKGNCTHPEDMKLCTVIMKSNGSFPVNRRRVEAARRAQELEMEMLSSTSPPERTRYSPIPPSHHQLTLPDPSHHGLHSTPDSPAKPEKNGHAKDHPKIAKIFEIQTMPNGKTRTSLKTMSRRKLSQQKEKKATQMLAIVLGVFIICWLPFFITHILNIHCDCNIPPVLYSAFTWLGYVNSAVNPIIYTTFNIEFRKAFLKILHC

In the case of `CCN1CCC[C@H]1CNC(=O)c1c(O)c(Cl)cc(Cl)c1OC` (racemic) [[^3H]raclopride, reference compound], the Kd was determined as 1.6 ± 0.1 nM.

As a reminder, the Kd is a measure of binding affinity in units of concentration. High values mean a looser complex, low ones a tighter complex.
